Experimental data published in patent US9394282B2, “Pyrazole carboxamides as Janus kinase inhibitors” (Merck Sharp & Dohme Corp., priority 2011, dated 2016).

Chains of the proteins cited; added tags and fusions are not shown. Residues count along the entry.
UniProt P23458, 875-1153: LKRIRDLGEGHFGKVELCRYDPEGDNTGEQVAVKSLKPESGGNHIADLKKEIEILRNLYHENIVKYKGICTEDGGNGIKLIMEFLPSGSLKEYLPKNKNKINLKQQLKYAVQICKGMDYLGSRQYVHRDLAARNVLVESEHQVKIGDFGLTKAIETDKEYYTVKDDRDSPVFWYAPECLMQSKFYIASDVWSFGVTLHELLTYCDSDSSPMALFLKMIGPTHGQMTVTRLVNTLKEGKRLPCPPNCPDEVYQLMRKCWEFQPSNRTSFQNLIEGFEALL
UniProt O60674, 849-1124: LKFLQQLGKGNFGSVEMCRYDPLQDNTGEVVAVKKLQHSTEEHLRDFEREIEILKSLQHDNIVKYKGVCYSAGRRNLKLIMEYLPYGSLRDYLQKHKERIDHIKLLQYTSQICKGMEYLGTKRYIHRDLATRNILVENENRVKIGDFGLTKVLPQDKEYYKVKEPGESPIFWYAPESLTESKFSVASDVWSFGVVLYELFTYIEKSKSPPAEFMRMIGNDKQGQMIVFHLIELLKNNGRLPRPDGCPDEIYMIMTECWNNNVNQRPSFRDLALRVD

What follows are compounds tested against JAK1 (Homo sapiens (Human), UniProt P23458) (assay: Jak biochemical HTRF assay, JAK1). Conditions: recombinant purified GST-tagged catalytic domain; HTRF format; [ATP] 31.8 μM.
From the text: (§1) Jak Biochemical HTRF Assay Protocol
(§2) Subsequent reagent additions employed an Agilent Bravo.

IC50 [nM] | Compound
154 | CC(C)(C)OC(=O)N1CCC(n2cc(C(N)=O)c(Nc3ccc(F)cc3)n2)[C@H](C#N)C1 (mixture of isomers) [Example 2-2, (3R,4S and 3S,4R)-tert-butyl 4-(4-carbamoyl-3-((4-fluorophenyl)amino)-1H-pyrazol-1-yl)-3-cyanopiperidine-1-carboxylate]
27 | CC(C)(C)OC(=O)N1CCC(n2cc(C(N)=O)c(Nc3ccc(F)cc3)n2)[C@@H](C#N)C1 (mixture of isomers) [Example 2-3, (3S,4S and 3R,4R)-tert-butyl 4-(4-carbamoyl-3-((4-fluorophenyl)amino)-1H-pyrazol-1-yl)-3-cyanopiperidine-1-carboxylate]
1 | CC(C)(C#N)COC(=O)N1CC[C@@H](C#N)C(n2cc(C(N)=O)c(Nc3ccc(F)cc3)n2)C1 (mixture of isomers) [Example 5-69, 2-Cyano-2-methylpropyl (3S,4R and 3R,4S)-3-{4-carbamoyl-3-[(4-fluorophenyl)amino]-1H-pyrazol-1-yl}-4-cyanopiperidine-1-carboxylate]
6 | N#C[C@@H]1CCN(C(=O)OCCF)CC1n1cc(C(N)=O)c(Nc2ccc(F)cc2)n1 (mixture of isomers) [Example 5-79, 2-fluoroethyl (3S,4R and 3R,4S)-3-{4-carbamoyl-3-[(4-fluorophenyl)amino]-1H-pyrazol-1-yl}-4-cyanopiperidine-1-carboxylate]
3 | N#C[C@@H]1CCN(C(=O)OCC2CC2)CC1n1cc(C(N)=O)c(Nc2ccc(F)cc2)n1 (mixture of isomers) [Example 5-81, cyclopropylmethyl (3S,4R and 3R,4S)-3-{4-carbamoyl-3-[(4-fluorophenyl)amino]-1H-pyrazol-1-yl}-4-cyanopiperidine-1-carboxylate]
8 | COCCOC(=O)N1CC[C@@H](C#N)C(n2cc(C(N)=O)c(Nc3ccc(F)cc3)n2)C1 (mixture of isomers) [Example 5-83, 2-methoxyethyl (3S,4R and 3R,4S)-3-{4-carbamoyl-3-[(4-fluorophenyl)amino]-1H-pyrazol-1-yl}-4-cyanopiperidine-1-carboxylate]
4 | CC1(COC(=O)N2CC[C@@H](C#N)C(n3cc(C(N)=O)c(Nc4ccc(F)cc4)n3)C2)COC1 (mixture of isomers) [Example 5-90, (3-methyloxetan-3-yl)methyl (3S,4R and 3R,4S)-3-{4-carbamoyl-3-[(4-fluorophenyl)amino]-1H-pyrazol-1-yl}-4-cyanopiperidine-1-carboxylate]
3 | N#C[C@@H]1CS(=O)(=O)CCC1n1cc(C(N)=O)c(Nc2ccc(C(F)(F)F)cc2)n1 (mixture of isomers) [Example 8-3, 1-((3R,4R and 3S,4S)-3-cyano-1,1-dioxidotetrahydro-2H-thiopyran-4-yl)-3-((4-(trifluoromethyl)phenyl)amino)-1H-pyrazole-4-carboxamide]
30 | N#C[C@@H]1CS(=O)(=O)CCC1n1cc(C(N)=O)c(Nc2ccc(C(F)(F)F)cc2)n1 (mixture of isomers) [Example 8-4, 1-((3R,4S and 3S,4R)-3-cyano-1,1-dioxidotetrahydro-2H-thiopyran-4-yl)-3-((4-(trifluoromethyl)phenyl)amino)-1H-pyrazole-4-carboxamide]
1 | N#C[C@H]1CS(=O)(=O)CC1n1cc(C(N)=O)c(Nc2ccc(F)cc2)n1 (mixture of isomers) [Example 8-5, 1-((3S,4S and 3R,4R)-4-cyano-1,1-dioxidotetrahydrothiophen-3-yl)-3-((4-fluorophenyl)amino)-1H-pyrazole-4-carboxamide]
0.8 | N#C[C@@H]1CS(=O)(=O)CC1n1cc(C(N)=O)c(Nc2ccc(F)cc2)n1 (mixture of isomers) [Example 8-6, 1-((3S,4R and 3R,4S)-4-cyano-1,1-dioxidotetrahydrothiophen-3-yl)-3-((4-fluorophenyl)amino)-1H-pyrazole-4-carboxamide]
0.5 | N#C[C@@H]1CS(=O)(=O)CC1n1cc(C(N)=O)c(Nc2ccc(S(=O)(=O)C(F)(F)F)cc2)n1 (mixture of isomers) [Example 8-7, 1-((3S,4R and 3R,4S)-4-cyano-1,1-dioxidotetrahydrothiophen-3-yl)-3-((4-((trifluoromethyl)sulfonyl)phenyl)amino)-1H-pyrazole-4-carboxamide]
71 | N#C[C@@H]1CS(=O)(=O)CCC1n1cc(C(N)=O)c(Nc2ccc(C(F)(F)F)cc2)n1 (single isomer, unassigned) [Example 13-3, 1-((3R,4S or 3S,4R)-3-cyano-1,1-dioxidotetrahydro-2H-thiopyrdn-4-yl)-3-((4-(trifluoromethyl)phenyl)amino)-1H-pyrazole-4-carboxamide]
2 | N#C[C@@H]1CS(=O)(=O)CCC1n1cc(C(N)=O)c(Nc2ccc(C(F)(F)F)cc2)n1 (single isomer, unassigned) [Example 13-4, 1-((3R,4S or 3S,4R)-3-cyano-1,1-dioxidotetrahydro-2H-thiopyran-4-yl)-3-((4-(trifluoromethyl)phenyl)amino)-1H-pyrazole-4-carboxamide]

Compound | IC50 [nM]
N#C[C@@H]1CN(C(=O)OC2CCCCC2)CC[C@H]1n1cc(C(N)=O)c(Nc2ccc(F)cc2)n1 (mixture of isomers) [Example 5-17, cyclohexyl (3R,4R and 3S,4S)-4-{4-carbamoyl-3-[(4-fluorophenyl)amino]-1H-pyrazol-1-yl}-3-cyanopiperidine-1-carboxylate] | 97
N#C[C@H]1CCOC[C@@H]1n1cc(C(N)=O)c(Nc2ccnc(F)c2)n1 (single isomer, unassigned) [Example 9-2, 1-((3R,4S or 3S,4R)-4-cyano-tetrahydro-2H-pyran-3-yl)-3-(2-fluoropyridin-4-ylamino)-1H-pyrazole-4-carboxamide] | 18
N#C[C@@H]1CS(=O)(=O)C[C@H]1n1cc(C(N)=O)c(Nc2ccc(F)cc2)n1 (single isomer, unassigned) [Example 12-1, 1-((3S,4R or 3R,4S)-4-Cyano-1,1-dioxidotetrahydrothiophen-3-yl)-3-((4-fluorophenyl)amino)-1H-pyrazole-4-carboxamide] | 179

Each compound was assayed against JAK2 (Homo sapiens (Human), UniProt O60674) (assay: Jak biochemical HTRF assay, JAK2). Conditions: recombinant purified GST-tagged catalytic domain; HTRF format; [ATP] 8.5 μM.
From the text: as §1, §2

IC50 [nM] | Compound
117 | CC(C)(C)CCOC(=O)N1CC[C@@H](C#N)C(n2cc(C(N)=O)c(Nc3ccc(F)cc3)n2)C1 (mixture of isomers) [Example 4, 3,3-Dimethylbutyl(3S,4R and 3R,4S)-3-{4-carbamoyl-3-[(4-fluorophenyl)amino]-1H-pyrazol-1-yl}-4-cyanopiperidine-1-carboxylate]
> 1500 | N#C[C@@H]1CN(C(=O)OCCC2CC2)CC[C@@H]1n1cc(C(N)=O)c(Nc2ccc(F)cc2)n1 (racemic) [Example 5-41, 2-cyclopropylethyl (3R,4S and 3S,4R)-4-{4-carbamoyl-3-[(4-fluorophenyl)amino]-1H-pyrazol-1-yl}-3-cyanopiperidine-1-carboxylate]
> 1500 | N#C[C@@H]1CN(C(=O)OC2CCOC2)CC[C@@H]1n1cc(C(N)=O)c(Nc2ccc(F)cc2)n1 (mixture of isomers) [Example 5-51, tetrahydrofuran-3-yl (3R,4S and 3S,4R)-4-{4-carbamoyl-3-[(4-fluorophenyl)amino]-1H-pyrazol-1-yl}-3-cyanopiperidine-1-carboxylate]
> 1500 | N#C[C@@H]1CN(C(=O)OC2CCOCC2)CC[C@@H]1n1cc(C(N)=O)c(Nc2ccc(F)cc2)n1 (racemic) [Example 5-60, tetrahydro-2H-pyran-4-yl (3R,4S and 3S,4R)-4-{4-carbamoyl-3-[(4-fluorophenyl)amino]-1H-pyrazol-1-yl}-3-cyanopiperidine-1-carboxylate]
> 1500 | CC1(COC(=O)N2CC[C@H](n3cc(C(N)=O)c(Nc4ccc(F)cc4)n3)[C@H](C#N)C2)CC1 (racemic) [Example 5-62, (1-methylcyclopropyl)methyl (3R,4S and 3S,4R)-4-{4-carbamoyl-3-[(4-fluorophenyl)amino]-1H-pyrazol-1-yl}-3-cyanopiperidine-1-carboxylate]
> 1500 | COCCCOC(=O)N1CC[C@H](n2cc(C(N)=O)c(Nc3ccc(F)cc3)n2)[C@H](C#N)C1 (racemic) [Example 5-63, 3-methoxypropyl (3R,4S and 3S,4R)-4-{4-carbamoyl-3-[(4-fluorophenyl)amino]-1H-pyrazol-1-yl}-3-cyanopiperidine-1-carboxylate]
> 1500 | N#CCC1(COC(=O)N2CC[C@H](n3cc(C(N)=O)c(Nc4ccc(F)cc4)n3)[C@H](C#N)C2)CC1 (racemic) [Example 5-64, [1-(cyanomethyl)cyclopropyl]methyl (3R,4S and 3S,4R)-4-{4-carbamoyl-3-[(4-fluorophenyl)amino]-1H-pyrazol-1-yl}-3-cyanopiperidine-1-carboxylate]
52 | N#C[C@@H]1CCN(C(=O)OCC2CC2)CC1n1cc(C(N)=O)c(Nc2ccc(F)cc2)n1 (mixture of isomers) [Example 5-81, cyclopropylmethyl (3S,4R and 3R,4S)-3-{4-carbamoyl-3-[(4-fluorophenyl)amino]-1H-pyrazol-1-yl}-4-cyanopiperidine-1-carboxylate]
87 | N#C[C@@H]1CCN(C(=O)OC2CCOCC2)CC1n1cc(C(N)=O)c(Nc2ccc(F)cc2)n1 (mixture of isomers) [Example 5-85, tetrahydro-2H-pyran-4-yl (3S,4R and 3R,4S)-3-{4-carbamoyl-3-[(4-fluorophenyl)amino]-1H-pyrazol-1-yl}-4-cyanopiperidine-1-carboxylate]
85 | N#C[C@@H]1CCN(C(=O)OCCN2CCOCC2)CC1n1cc(C(N)=O)c(Nc2ccc(F)cc2)n1 (mixture of isomers) [Example 5-87, 2-morpholin-4-ylethyl (3S,4R and 3R,4S)-3-{4-carbamoyl-3-[(4-fluorophenyl)amino]-1H-pyrazol-1-yl}-4-cyanopiperidine-1-carboxylate]
76 | N#C[C@@H]1CCN(C(=O)OCCC2CC2)CC1n1cc(C(N)=O)c(Nc2ccc(F)cc2)n1 (mixture of isomers) [Example 5-91, 2-cyclopropylethyl (3S,4R and 3R,4S)-3-{4-carbamoyl-3-[(4-fluorophenyl)amino]-1H-pyrazol-1-yl}-4-cyanopiperidine-1-carboxylate]
146 | N#C[C@@H]1CS(=O)(=O)CCC1n1cc(C(N)=O)c(Nc2ccc(C(F)(F)F)cc2)n1 (mixture of isomers) [Example 8-3, 1-((3R,4R and 3S,4S)-3-cyano-1,1-dioxidotetrahydro-2H-thiopyran-4-yl)-3-((4-(trifluoromethyl)phenyl)amino)-1H-pyrazole-4-carboxamide]
371 | N#C[C@@H]1CS(=O)(=O)CCC1n1cc(C(N)=O)c(Nc2ccc(C(F)(F)F)cc2)n1 (mixture of isomers) [Example 8-4, 1-((3R,4S and 3S,4R)-3-cyano-1,1-dioxidotetrahydro-2H-thiopyran-4-yl)-3-((4-(trifluoromethyl)phenyl)amino)-1H-pyrazole-4-carboxamide]
769 | N#C[C@@H]1CS(=O)(=O)CCC1n1cc(C(N)=O)c(Nc2ccc(C(F)(F)F)cc2)n1 (single isomer, unassigned) [Example 13-3, 1-((3R,4S or 3S,4R)-3-cyano-1,1-dioxidotetrahydro-2H-thiopyrdn-4-yl)-3-((4-(trifluoromethyl)phenyl)amino)-1H-pyrazole-4-carboxamide]
33 | N#C[C@@H]1CS(=O)(=O)CCC1n1cc(C(N)=O)c(Nc2ccc(C(F)(F)F)cc2)n1 (single isomer, unassigned) [Example 13-4, 1-((3R,4S or 3S,4R)-3-cyano-1,1-dioxidotetrahydro-2H-thiopyran-4-yl)-3-((4-(trifluoromethyl)phenyl)amino)-1H-pyrazole-4-carboxamide]

Compound | IC50 [nM]
N#C[C@H]1COCC[C@@H]1n1cc(C(N)=O)c(Nc2ccnc(F)c2)n1 (single isomer, unassigned) [Example 11-1, 1-[(3S,4S or 3R,4R)-3-Cyanotetrahydro-2H-pyran-4-yl]-3-[(2-fluoropyridin-4-yl)amino]-1H-pyrazole-4-carboxamide] | 323
